# This is a sample that favours compounds with a hit; in the whole collection about 16% have one here.
# miR-21 reporter: raises the signal of a miR-21 reporter | HeLa miR-21 FLuc reporter, luciferase, 48 h | Potency, µM (highest dose often 38.3 µM), inactives show at the highest dose reporter change, positive = more light | 340,000 tested, under 10 active | AID 2288; active = well fitted rising curve with a large enough effect; inconclusive = small, poorly fitted or top-dose-only effect; inactive = no such curve, though single readings can be large or run the other way;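 note: % of control where 0% means no effect; miR-21 action dims this reporter so a rising signal means less miR-21 action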
#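 Compounds were titrated across several concentrations (up to approximately 40 uM) and incubated 48 hours with HeLa miR-21-FLuc reporter cells (miR-21 target sequence downstream of FLuc, endogenous miR-21). Readout was firefly luciferase luminescence after lytic detection reagent.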
# TDP1 block: blocks human tyrosyl-DNA phosphodiesterase 1 | recombinant TDP1, AlphaScreen DNA substrate cleavage | Q9NUW8 | Potency, µM (titrated, usually from 130 µM), inactives show at the highest dose activity change, negative = inhibition, usual class: inhibitors | actives 0.28% (n = 350,000); further: potency means the concentration at half of the fitted maximal effect; on the % scale 0 is the no-effect control and ±100 the full control effect; nearly all actives have a fitted effect of over 40% in size
#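 Steps: enzyme plus compound, 15 min RT; add biotin/phosphotyrosine-FITC oligonucleotide (15 nM final), react 5 min; add donor/acceptor beads (10 ug/ml final), 10 min; read AlphaScreen. Tdp1 at 1 nM final.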
# uPA surface inh: blocks generation of uPA at the cell surface. cell surface uPA generation assay, qHTS. Potency, µM (series often up to 38.3 µM), without a hit: at the top dose activity change, negative = inhibition, most hits filed as inhibitors. actives 0.31% (n = 330,000); active means well fitted inhibition curve with a large enough effect; inconclusive means small, poorly fitted or top-dose-only effect; inactive means no such curve, though single readings can be large or run the other way; tested in mouse RAW 264.7 cells; further: potency means the concentration at half of the fitted maximal effect; on the % scale 0 is the no-effect control and ±100 the full control effect; nearly all actives have a fitted effect of over 55% in size
# DT40 TDP1 no CPT: qHTS for Inhibitors of human tyrosyl-DNA phosphodiesterase 1 (TDP1): qHTS in cells in absence of CPT; DT40 Tdp1-/- hTDP1 cells, no CPT, ATP luminescence, 48 h; Potency, µM (highest dose often 46.2 µM), for the others: at the highest dose activity change, negative = growth inhibition, usual class: inhibitors; actives 15% (n = 420,000); further: potency means the concentration at half of the fitted maximal effect; on the % scale 0 is the no-effect control and ±100 the full control effect; nearly all actives have a fitted effect of over 55% in size
#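 DT40 Tdp1-/-;hTDP1 cells, no CPT (DMSO vehicle only), 400 cells/well; compounds pin-transferred; ≥48 hr, 37 °C; CellTiter-Glo 30 min RT dark, luminescence read.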
# DT40 TDP1 CPT: growth inhibition of DT40 Tdp1-/-;hTDP1 cells with camptothecin (screen for TDP1 inhibitors); chicken DT40 Tdp1-/-;hTDP1 cells + 20 nM CPT, ATP luminescence, 48 h; Potency, µM (highest dose often 46.2 µM), without a hit: at the highest dose activity change, negative = growth inhibition, usual class: inhibitors; actives 12% (n = 420,000); further: potency means the concentration at half of the fitted maximal effect; on the % scale 0 is the no-effect control and ±100 the full control effect; nearly all actives have a fitted effect of over 55% in size
#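 Cell growth measured by CellTiter-Glo luminescence after a minimum 48 h, 37 C compound exposure with 20 nM CPT in Tdp1-knockout DT40 cells stably expressing hTDP1, seeded 400/well; qHTS titration format.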
# * = called active by the depositor; ? = inconclusive; · = no result; [ ] = dose if it differs, or a comment. Unless noted, the call rests on the fitted dose curve; in most records, active means well fitted curve in the direction sought with a large enough effect; inconclusive means small, poorly fitted or top-dose-only effect, or another doubt; inactive means no such curve, though single readings can be large; an effect the other way counts as inactive or inconclusive.
entry | canonical_smiles | miR-21 reporter | TDP1 block | uPA surface inh
1 | Cc1cc(C)n(CCCNC(=O)c2ccc3c(c2)NC(=O)CS3)n1 | -1% | 4% | 4%
2 | COc1cc(OCc2ccccc2)c(OC)c(OCc2ccccc2)c1 | · | · | 1%
3 | COc1c(Br)cc(C(N)=O)cc1OCc1ccccc1 | -6% | -3% | 3%
4 | Cc1cc(Cl)cc2sc(=S)[nH]c12 | · | · | -1%
5 | CC1CN(S(=O)(=O)c2ccc(C(=O)N3CCc4ccccc43)cc2)CC(C)O1 (stereo not given) | · | 1% | 7%
6 | Cc1nnsc1C(=O)NC1CCCc2c1cnn2-c1ccc(C(C)(C)C)cc1 (stereo not given) | 23% | 4% | ?
7 | Cc1nnsc1C(=O)NC1CCCc2c1cnn2-c1ccccc1F (stereo not given) | 20% | 1% | 4%
8 | N#Cc1c(N2CCCCC2)nc(N2CCCCC2)c2c1CCN(Cc1ccccc1)C2 | 14% | 2% | ·

entry | DT40 TDP1 no CPT | DT40 TDP1 CPT
1 | -5% | -1%
2 | ? | 21µM*
3 | -22% | -23%
4 | -27% | -7%
5 | -26% | -8%
6 | 7.3µM* | 10µM*
7 | 18µM* | 10µM*
8 | ? | ?

# Entries above with four or more nitrogen atoms, in the order listed:
entry | canonical_smiles | miR-21 reporter | TDP1 block | uPA surface inh
1 | Cc1cc(C)n(CCCNC(=O)c2ccc3c(c2)NC(=O)CS3)n1 | -1% | 4% | 4%
6 | Cc1nnsc1C(=O)NC1CCCc2c1cnn2-c1ccc(C(C)(C)C)cc1 (stereo not given) | 23% | 4% | ?
7 | Cc1nnsc1C(=O)NC1CCCc2c1cnn2-c1ccccc1F (stereo not given) | 20% | 1% | 4%
8 | N#Cc1c(N2CCCCC2)nc(N2CCCCC2)c2c1CCN(Cc1ccccc1)C2 | 14% | 2% | ·

entry | DT40 TDP1 no CPT | DT40 TDP1 CPT
1 | -5% | -1%
6 | 7.3µM* | 10µM*
7 | 18µM* | 10µM*
8 | ? | ?

# (cont.)
entry | canonical_smiles | miR-21 reporter | TDP1 block | uPA surface inh
9 | COc1ccc(NS(=O)(=O)c2ccc3oc4ccccc4c3c2)cn1 | 0% | 3% | 0%
10 | COc1ccc(-n2ncc(C(=O)N3CCOCC3)c2C2CCN(C(=O)OC(C)(C)C)CC2)cc1 | -4% | 3% | ·
11 | Cc1cccc(N2CCN(C(=O)c3cnn(-c4ccccc4)c3C3CCN(C(=O)OC(C)(C)C)CC3)CC2)c1C | ? | 2% | ·
12 | Cc1ccc(-n2ncc(C(=O)N3CCN(c4ccccn4)CC3)c2C2CCN(C(=O)OC(C)(C)C)CC2)cc1 | 1% | 4% | ·
13 | COc1ccc(-n2ncc(C(=O)N3CCN(c4ccccn4)CC3)c2C2CCN(C(=O)OC(C)(C)C)CC2)cc1 | 3% | -1% | ·
14 | CCc1cccc(C)c1NC(=O)c1cnn(-c2ccc(OC)cc2)c1C1CCN(C(=O)OC(C)(C)C)CC1 | 29% | 8% | ·
15 | CC(C)(C)OC(=O)N1CCC(c2c(C(=O)N3CCN(c4ccccn4)CC3)cnn2-c2cccc(F)c2)CC1 | -3% | 3% | ·
16 | Brc1ccc(-c2nnc3ccc(Nc4ccccc4)nn23)cc1 | 0% | 3% | ·

entry | DT40 TDP1 no CPT | DT40 TDP1 CPT
9 | ? | 23µM*
10 | -1% | 6%
11 | 16µM* | ?
12 | ? | ?
13 | 21µM* | ?
14 | 18µM* | 18µM*
15 | 16µM* | 18µM*
16 | · | ·

# Other results.
entry | canonical_smiles | miR-21 reporter | TDP1 block | uPA surface inh
17 | O=C(NCCN1CCN(c2ccccc2)CC1)c1ccccc1F | -10% | · | 4%
18 | CC1(C)CC(=O)C(C(O)c2ccc([N+](=O)[O-])cc2)C(C)(C)N1 (stereo not given) | -2% | · | -11%
19 | Nn1c(SCC(=O)NC2CCCc3ccccc32)nnc1-c1ccc(Cl)cc1Cl (stereo not given) | 2% | 5% | ·
20 | COc1ccc(N2CCN(C(=O)c3cnn(-c4ccc(OC)cc4)c3C3CCN(C(=O)OC(C)(C)C)CC3)CC2)cc1 | -2% | 5% | ·
21 | COc1ccc(CNS(=O)(=O)c2cnc(N)nc2)cc1 | -3% | 7% | ·
22 | COc1cccc(C(=O)COC(=O)c2cc(-c3cccs3)nc3ccccc23)c1 | -9% | · | ·
23 | O=C(COC(=O)c1cc(-c2cccs2)nc2ccccc12)c1ccccc1 | -7% | · | ·
24 | COc1cccc(CN(C)C(=O)c2cc(-c3cccs3)nc3ccccc23)c1 | 23% | 2% | -2%

entry | DT40 TDP1 no CPT | DT40 TDP1 CPT
17 | 11% | -6%
18 | -21% | 5%
19 | · | ·
20 | ? | 18µM*
21 | -8% | -3%
22 | 16µM* | ?
23 | ? | ?
24 | 18µM* | 21µM*

# Remaining list, next part.
entry | canonical_smiles | miR-21 reporter | TDP1 block | uPA surface inh
25 | CCCCN1C(=O)c2ccc(C(=O)NC3(C)CCS(=O)(=O)C3)cc2C1=O (stereo not given) | · | 1% | 7%
26 | CC(=O)Nc1ccc(S(=O)(=O)N2CCN(C(=O)N3CCCCC3)CC2)cc1 | 0% | · | 2%
27 | CC1Cc2nc(SCC(=O)Nc3nccs3)n(Cc3ccccc3)c(=O)c2S1 (stereo not given) | -1% | 5% | 14%
28 | CC1Cc2nc(SCC(=O)Nc3ccc4c(c3)OCO4)n(Cc3ccccc3)c(=O)c2S1 (stereo not given) | -50% | 10% | -5%
29 | Cc1cc(NC(=O)CSc2nc3c(c(=O)n2-c2ccccc2)SC(C)C3)no1 (stereo not given) | -6% | 0% | 9%
30 | CC1Cc2nc(SCC(=O)NCC3CCCO3)n(Cc3ccccc3)c(=O)c2S1 (stereo not given) | -21% | 2% | 0%
31 | CCSc1nc2c(c(=O)n1Cc1ccccc1)SC(C)C2 (stereo not given) | -6% | 9% | -17%
32 | CC1Cc2nc(SCC(=O)Nc3ccc4c(c3)OCCO4)n(C)c(=O)c2S1 (stereo not given) | -3% | 6% | 4%

entry | DT40 TDP1 no CPT | DT40 TDP1 CPT
25 | ? | 1%
26 | -26% | -18%
27 | ? | 21µM*
28 | ? | 16µM*
29 | 21µM* | ?
30 | -16% | 1%
31 | ? | 12µM*
32 | ? | ?

# Other compounds.
entry | canonical_smiles | miR-21 reporter | TDP1 block | uPA surface inh
33 | COc1ccc(-n2c(SCC(=O)Nc3cc(C)on3)nc3c(c2=O)SC(C)C3)cc1 (stereo not given) | · | · | ·
34 | CC1Cc2nc(SCC(N)=O)n(Cc3ccccc3)c(=O)c2S1 (stereo not given) | -2% | · | 13%
35 | CCN(CC(=O)Nc1c(F)cccc1F)C(=O)CCNC(=O)c1ccccc1OC | · | · | 1%
36 | COCCn1c(SCC(=O)Nc2ccc3c(c2)OCCO3)nc2c(c1=O)SC(C)C2 (stereo not given) | -34% | 5% | 17%
37 | CC(C)=CCc1c(O)cc2oc3c(CC=C(C)C)c(O)c(O)c(CC=C(C)C)c3c(=O)c2c1O | ? | · | -30%
38 | CC(C)=CCc1c(O)cc2oc(C)cc(=O)c2c1O | · | -8% | ·
39 | COc1c(O)cc2oc3cc(O)c(CC=C(C)C)c(O)c3c(=O)c2c1CC=C(C)C | · | 18%[56.1 µM] | ·
40 | CC(C)NC(=O)c1sc(=S)n2c1[nH]c(=O)c1ccc(C(=O)NCCc3ccc(Cl)cc3)cc12 | 2% | · | -7%

entry | DT40 TDP1 no CPT | DT40 TDP1 CPT
33 | ? | -2%
34 | -21% | -2%
35 | 9% | 2%
36 | ? | 15µM*
37 | 21µM* | ?
38 | ? | ?
39 | 12µM* | 19µM*
40 | ? | ?

# The results go on:
entry | canonical_smiles | miR-21 reporter | TDP1 block | uPA surface inh
41 | CCCCn1c(=N)n(CC(=O)c2ccc(Br)s2)c2ccccc21 | 21% | 1% | ?
42 | CCn1c(=N)n(CC(=O)c2ccc(Br)s2)c2ccccc21 | -34% | 0% | -5%
43 | CCCn1c(=N)n(CC(=O)C(C)(C)C)c2ccccc21 | -1% | 5% | 2%
44 | CCCCn1c(=N)n(CC(=O)C(C)(C)C)c2ccccc21 | 4% | 5% | 1%
45 | O=C(NC(=S)Nc1ccccc1O)c1cncc(Br)c1 | · | · | -19%

entry | DT40 TDP1 no CPT | DT40 TDP1 CPT
41 | 4.1µM* | 5.2µM*
42 | ? | ?
43 | ? | ?
44 | ? | 23µM*
45 | 23µM* | ?

# Assay outcomes as filed in PubChem BioAssay.
